Values quoted from earlier work in paper PMC4885489, “Prediction of Drug-Drug Interactions Arising from CYP3A induction Using a Physiologically Based Dynamic Model” (Drug Metabolism and Disposition, 2016).

How the values were obtained:
[1] = test system: rCYP3A5; conditions: cited from earlier work
[2] = ref (Drusano et al., 1986a); cited from earlier work

Compound | rCYP3A5 Vmax [1] [µL/min/pmol] | rCYP3A5 Vmax ([1]; second pathway, printed 'oxylation', corrected for fumic & ISEF, ref Meta-analysis (Hirota et al., 2001), (Galetin et al., 2004) (Williams et al., 2002)) [µL/min/pmol] | ka [2] [h⁻¹]
Cc1nnc2n1-c1ccc(Cl)cc1C(c1ccccc1)=NC2 [Alprazolam, alprazolam] | 5.99 | 2.29 | –
CO[C@H]1/C=C/O[C@@]2(C)Oc3c(C)c(O)c4c(O)c(c(/C=N/N5CCN(C)CC5)c(O)c4c3C2=O)NC(=O)/C(C)=C\C=C\[C@H](C)[C@H](O)[C@@H](C)[C@@H](O)[C@@H](C)[C@H](OC(C)=O)[C@@H]1C [Rifampicin, rifampicin] | – | – | 0.51

Like-named read-outs stand apart in the source and are kept apart here.
